In publication PMC12731528, “High‐Affinity Peptide‐Drug Conjugate Ligands for the TRIM24 PHD and Bromodomain” (Chemistry (Weinheim an Der Bergstrasse, Germany), 2025):
Values joined by “and” are separate entries in the source; they are usually repeats but may differ in a detail not shown here. Identical values can stand only once. Like-named read-outs stand apart in the source and are kept apart here.

What was measured:
TRIM24 (PHD‐BRD) = target: T1, TRIM24 (PHD‐BRD) (Homo sapiens, UniProt O15164); assay: BROMOscan assay, TRIM24; type: binding
T1 sequence (O15164 826-1004 limits assumed): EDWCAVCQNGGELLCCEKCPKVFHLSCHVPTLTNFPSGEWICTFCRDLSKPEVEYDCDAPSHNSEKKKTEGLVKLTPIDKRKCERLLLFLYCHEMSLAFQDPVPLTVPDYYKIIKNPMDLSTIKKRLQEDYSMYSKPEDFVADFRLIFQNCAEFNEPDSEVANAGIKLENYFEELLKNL

His6-TRIM24 (PHD-BRD) [1] = target: T2, His6-TRIM24 (PHD-BRD) (Homo sapiens, UniProt O15164); settings: AlphaScreen® IC50, inhibition of TRIM24-H3K9Me3 (B1) binding by PDCs and controls; mean of triplicate ± SEM
T2 sequence (O15164 825-1007): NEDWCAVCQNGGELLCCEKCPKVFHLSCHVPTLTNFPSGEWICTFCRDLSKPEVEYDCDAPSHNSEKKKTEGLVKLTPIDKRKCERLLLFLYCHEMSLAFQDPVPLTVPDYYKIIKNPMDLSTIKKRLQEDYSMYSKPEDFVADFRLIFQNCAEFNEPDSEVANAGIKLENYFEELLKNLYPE

His6-TRIM24 (PHD-BRD) [2] = target: T2, His6-TRIM24 (PHD-BRD); assay: AlphaScreen competition assay, displacement of biotinylated H3(1–27)K9Me3K18Ac (B3); set-up: N825–E1007; made in house; host or cells: Escherichia coli BL21-Gold (DE3), plasmid pNIC28-Bsa4; settings: inhibition of TRIM24-H3K9Me3K18Ac (B3) binding, mean of triplicate ± SEM
His6-TRIM24 (PHD-BRD) [3] = target: T2, His6-TRIM24 (PHD-BRD); assay: AlphaScreen competition assay, displacement of biotinylated H3(1–27)K18Ac (B2); set-up: N825–E1007; made in house; host or cells: Escherichia coli BL21-Gold (DE3), plasmid pNIC28-Bsa4; settings: inhibition of TRIM24-H3K18Ac (B2) binding; mean of triplicate ± SEM
[4] = BROMOscan TRIM24 PHD-BRD Kd, mean of duplicate data ± 95% confidence interval
[5] = individual duplicate curves, read-out: BROMOscan TRIM24 Kd, single dose-response curve

SMILES | Kd (TRIM24 (PHD‐BRD); [4]) | Kd (TRIM24 (PHD‐BRD); [5]) | IC50 (His6-TRIM24 (PHD-BRD) [1]) | IC50 (His6-TRIM24 (PHD-BRD) [2]) | IC50 (His6-TRIM24 (PHD-BRD) [3])
CCCOc1cccc(Oc2cc3c(cc2NS(=O)(=O)c2cccc(C(=O)NCCOCCOCCOCCNC(=O)[C@H](CCCCN4Cc5ccccc5C4)NC(=O)[C@H](CCCNC(=N)N)NC(=O)[C@H](C)NC(=O)[C@@H](NC(=O)[C@H](CCC(N)=O)NC(=O)[C@H](CCCCN)NC(=O)[C@@H](NC(=O)[C@H](CCCNC(=N)N)NC(=O)[C@H](C)N)[C@@H](C)O)[C@@H](C)O)c2)n(C)c(=O)n3C)c1 [PDC5] | 0.22 ± 0.05 nM | 0.24 nM and 0.19 nM | 14.6 ± 0.3 nM | 28.8 ± 0.8 nM | –
CCCOc1cccc(Oc2cc3c(cc2NS(=O)(=O)c2cccc(C(=O)NCCOCCOCCNC(=O)[C@H](CCCCN4Cc5ccccc5C4)NC(=O)[C@H](CCCNC(=N)N)NC(=O)[C@H](C)NC(=O)[C@@H](NC(=O)[C@H](CCC(N)=O)NC(=O)[C@H](CCCCN)NC(=O)[C@@H](NC(=O)[C@H](CCCNC(=N)N)NC(=O)[C@H](C)N)[C@@H](C)O)[C@@H](C)O)c2)n(C)c(=O)n3C)c1 [PDC4] | 0.27 ± 0.19 nM | 0.17 nM and 0.36 nM | 4.7 ± 0.5 nM | – | 4.8 ± 0.3 nM
